# Test results reported in PubChem BioAssay AID602318 (Sanford-Burnham Center for Chemical Genomics, 2012).
# The chains behind the UniProt entries cited, without tags or fusion partners.
# UniProt O00487, whole entry: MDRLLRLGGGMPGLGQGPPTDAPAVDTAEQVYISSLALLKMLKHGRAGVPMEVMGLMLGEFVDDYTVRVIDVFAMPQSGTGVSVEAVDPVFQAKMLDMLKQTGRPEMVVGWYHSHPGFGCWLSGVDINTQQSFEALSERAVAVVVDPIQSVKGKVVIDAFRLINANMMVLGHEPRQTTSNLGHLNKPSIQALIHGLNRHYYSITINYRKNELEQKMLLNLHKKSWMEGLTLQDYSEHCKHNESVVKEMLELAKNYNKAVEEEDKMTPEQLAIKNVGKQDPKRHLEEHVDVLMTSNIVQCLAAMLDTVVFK
# This is a selection; strong and weak results do not stand in their true shares. The source made the active and inactive calls. Cut-off read from the data, not from the text of the source: active = inhibition above about 40%; inactive = the rest.
# Biological target: 26S proteasome non-ATPase regulatory subunit 14 (Homo sapiens) (UniProt O00487)
# Test: inhibition of 26S proteasome subunit Rpn11 – biochemical, fluorescence polarization, single concentration, confirmation (AID 602318)
# Settings: purified human 26S proteasome, Ub4-pepOG fluorescence polarization; at 20 µM; stronger effect = higher value; proteasome pretreated with epoxomicin
row,SMILES,inhibition
1,CCCCCCCCCCCCCCCC1C[N+](C)(C)CCOP(C)(=O)O1 (stereo unspecified),inactive: 39.7%
